# Experimental data from PMC4140284, “Human UTY(KDM6C) Is a Male-specific N^ϵ-Methyl Lysyl Demethylase” (The Journal of Biological Chemistry, 2014).
# Tested on: UTY(KDM6C)
# Conditions: absence of prime substrate, 1H NMR
# Text: The total echo time was 48 ms.
compound,measurement,value
"O=C(O)CCC(=O)C(=O)O [2OG, 2-oxoglutarate]",rate of uncoupled 2OG turnover,comparable with that observed for both recombinant KDM6A and KDM6B
